The entries are a selection whose mix differs from that of the whole data set. Activity calls are given as the source filed them.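 How the source made its calls: active means primary screen inhibition at 20 µM above a set limit (cut at about 50% in these data); inactive means the rest.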

This assay has as its system diaphorase (Clostridium kluyveri). Put plainly: diaphorase inhibitors and chemical oxidizers, primary screen, counter-screen for diaphorase-coupled primary assays, biochemical, uHTS, resorufin fluorescence (AID 1217).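 Further: plate controls were DMSO with full reaction for no effect and wells lacking NADH for full effect.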 To be noted: diaphorase resazurin-to-resorufin fluorescence, NADH, 16 min; at 20 µM; hits give high values; bacterial (C. kluyveri) enzyme, not human. On the technique in general: Counterscreens check selectivity or assay interference.
For `COc1ccc(OP(C)(=O)Nc2ccccn2)cc1` (stereo unspecified), the inhibition – broadly, the share of the control response that was lost under treatment – was inactive: 11.7%.
